## Yeast mating assay 2: variants of the scFv Ab-91

Target: peptide PDVDLGDISGINAS, taken from heptad repeat 2 (HR2) of SARS-CoV-2 spike.

Parent scFv Ab-91: VL joined to VH by three GGGGS repeats. Changes lie in the heavy chain CDRs alone.
VL: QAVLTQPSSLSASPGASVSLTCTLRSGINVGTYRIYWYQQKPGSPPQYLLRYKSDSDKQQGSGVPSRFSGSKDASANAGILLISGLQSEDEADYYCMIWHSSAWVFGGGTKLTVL
VH: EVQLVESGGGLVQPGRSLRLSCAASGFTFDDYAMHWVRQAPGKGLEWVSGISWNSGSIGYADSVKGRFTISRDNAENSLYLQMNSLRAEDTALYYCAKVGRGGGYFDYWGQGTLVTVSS

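The parent was found by panning a naive human phage display library on the peptide. The library (AAYL51) carries one to three amino acid substitutions per variant, with no insertions or deletions. Affinity was read by AlphaSeq, a pooled yeast mating assay with surface-displayed partners. Pairs that bind mate more often; barcode pairs of the diploids are counted by sequencing. Read counts were normalised to the haploid input and turned into Kd by a linear fit to BCL2-family pairs of known affinity, for each replicate. Mating was done three times.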

Changes read parent residue, position, new residue, counted from the first residue of the VH shown. Every variant below is changed at G56 of the VH (sequential numbering). The Kd shown is the geometric mean over detected replicates; a lower Kd is a better binder. "nd" means that the variant was in the library but no mating with the target was seen in any replicate; the authors take this as a sign of poor binding, and no number exists. Background: pairings of library AAYL51 with three empty control strains gave a value in 21% of cases (median 34 µM, 5th percentile 1.8 µM). Values in that range, when seen in few replicates, are hard to tell from nonspecific mating. The control count says in how many pairings with the empty strains this scFv gave a signal. Parent in this assay: reference entry 72 nM, copy in this library 7.5 nM.

The variant T28M G56P gave nd (0 of 3 replicates; controls 0 of 9). For Y32T G56L G59W, the assay gave 12 µM (2 of 3 replicates; controls 0 of 9). The variant M34K W53I G56P showed 14 µM (1 of 3 replicates; controls 0 of 9). For F29Q G56W A61N, the assay gave 44 µM (1 of 3 replicates; controls 3 of 9). The variant F29I G56E Y60V showed 4.9 nM (3 of 3 replicates; controls 0 of 9). For S52Q G56I I58Q, the assay gave 43 µM (1 of 3 replicates; controls 8 of 9).

With H35F G56H A61V the result was nd (0 of 3 replicates; controls 0 of 9). With G56E S57Y Y60F the result was 94 µM (3 of 3 replicates; controls 5 of 9). With I51V G56Y G59L the result was nd (0 of 3 replicates; controls 2 of 9). The variant A33N G56E A61S gave nd (0 of 3 replicates; controls 1 of 9). With D31G G56C S63V the result was nd (0 of 3 replicates; controls 0 of 9). For G56H D62K G102R, the assay gave nd (0 of 3 replicates; controls 1 of 9).

For Y32C M34T G56W, the assay gave 700 µM (2 of 3 replicates; controls 3 of 9). The variant T28G G50V G56L gave nd (0 of 3 replicates; controls 0 of 9). For D31S S52Q G56A, the assay gave nd (0 of 3 replicates; controls 0 of 9). The variant T28I G56P Y108W showed nd (0 of 3 replicates; controls 0 of 9). The variant Y32T G56K F106G showed nd (0 of 3 replicates; controls 0 of 9). For H35P W53L G56T, the assay gave 170 µM (2 of 3 replicates; controls 4 of 9).

The variant W53M G56F R101G gave 340 nM (3 of 3 replicates; controls 4 of 9). The variant M34L G56S K65S showed 920 nM (1 of 3 replicates; controls 1 of 9). The variant G56C Y108V gave 6.7 nM (3 of 3 replicates; controls 6 of 9). The variant G56K G100D G103H showed 5.3 µM (2 of 3 replicates; controls 3 of 9). The variant Y32L G56W Y108A showed nd (0 of 3 replicates; controls 2 of 9). The variant G26M T28R G56H showed 2.7 µM (1 of 3 replicates; controls 2 of 9).

The variant A33P M34R G56S gave nd (0 of 3 replicates; controls 2 of 9). For H35Y G56L, the assay gave 49 µM (3 of 3 replicates; controls 5 of 9). The variant S55D G56Y V99F gave nd (0 of 3 replicates; controls 4 of 9). The variant G50W G56F G100F showed 110 µM (3 of 3 replicates; controls 6 of 9). The variant G56D G59W A61D showed nd (0 of 3 replicates; controls 3 of 9). For G56C K65T F106K, the assay gave 30 nM (3 of 3 replicates; controls 5 of 9).

The variant D31K Y32I G56C gave 34 µM (1 of 3 replicates; controls 3 of 9). The variant F29H A33S G56H showed 5.7 µM (1 of 3 replicates; controls 1 of 9). For G56I I58D, the assay gave nd (0 of 3 replicates; controls 1 of 9). For D31H G56N V64D, the assay gave 21 µM (3 of 3 replicates; controls 5 of 9). With G56W G59D F106E the result was 1.9 µM (1 of 3 replicates; controls 0 of 9). The variant Y32R G56D K65Y showed 180 nM (3 of 3 replicates; controls 1 of 9).

The variant H35V S55R G56F showed nd (0 of 3 replicates; controls 3 of 9). For G26H H35S G56Q, the assay gave 110 µM (2 of 3 replicates; controls 5 of 9). For F27D G56C, the assay gave 69 µM (3 of 3 replicates; controls 3 of 9). For G56N, the assay gave nd (0 of 3 replicates; controls 0 of 9). The variant I51H G56T G104N gave 23 µM (1 of 3 replicates; controls 1 of 9). For F29W Y32L G56K, the assay gave nd (0 of 3 replicates; controls 0 of 9).

For G56P D62K G103E, the assay gave 230 µM (2 of 3 replicates; controls 2 of 9). With W53P G56L D62H the result was 57 µM (3 of 3 replicates; controls 7 of 9). The variant A33E G56Q Y108K gave 100 µM (1 of 3 replicates; controls 5 of 9). The variant G50M G56H V99L showed nd (0 of 3 replicates; controls 0 of 9). For D31M W53L G56F, the assay gave 250 nM (3 of 3 replicates; controls 3 of 9). For G56E R101S D107L, the assay gave 130 nM (3 of 3 replicates; controls 3 of 9).

With M34F G56E the result was 260 µM (3 of 3 replicates; controls 5 of 9). With N54Q S55G G56T the result was nd (0 of 3 replicates; controls 1 of 9). The variant G56M Y105M showed 120 µM (3 of 3 replicates; controls 5 of 9). With G26Y A33P G56R the result was nd (0 of 3 replicates; controls 1 of 9).

From the list, the first 7 with no signal in any replicate:

T28M G56P: nd (0 of 3 replicates; controls 0 of 9).
H35F G56H A61V: nd (0 of 3 replicates; controls 0 of 9).
I51V G56Y G59L: nd (0 of 3 replicates; controls 2 of 9).
A33N G56E A61S: nd (0 of 3 replicates; controls 1 of 9).
D31G G56C S63V: nd (0 of 3 replicates; controls 0 of 9).
G56H D62K G102R: nd (0 of 3 replicates; controls 1 of 9).
T28G G50V G56L: nd (0 of 3 replicates; controls 0 of 9).

Data: MIT Lincoln Laboratory AlphaSeq set, Engelhart et al. 2022, doi:10.1038/s41597-022-01779-4, as distributed in FLAb.